Test results from patent US20250368649A1, “TETRAHYDROPYRIDOPYRIMIDINE PAN-KRAS INHIBITORS” (Mirati Therapeutics, Inc., priority 2022, published 2025).

By UniProt entry, the sequences of proteins in these tests, tags left out. Where a name states a change or a piece, a line headed by the entry shows the natural chain unless it says otherwise.
UniProt P01116: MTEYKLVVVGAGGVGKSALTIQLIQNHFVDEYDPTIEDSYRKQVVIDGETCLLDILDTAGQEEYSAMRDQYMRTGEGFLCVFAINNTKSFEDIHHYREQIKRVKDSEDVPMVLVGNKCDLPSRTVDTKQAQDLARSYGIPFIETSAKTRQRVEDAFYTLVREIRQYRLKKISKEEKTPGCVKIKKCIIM

Columns and labels:
Experiment in all cases: biochemical
KRas G12D = KRas G12D (Homo sapiens, UniProt P01116, G12D); details: Binding to KRas (IC50 nM) G12D, TR-FRET displacement
KRas G12R = KRas G12R (Homo sapiens, UniProt P01116, G12R); details: Binding to KRas (IC50 nM) G12R, TR-FRET displacement
KRas G12V = KRas G12V (Homo sapiens, UniProt P01116, G12V); details: Binding to KRas (IC50 nM) G12V, TR-FRET displacement

| SMILES | IC50 (KRas G12D) | IC50 (KRas G12R) | IC50 (KRas G12V) |
| --- | --- | --- | --- |
| Cc1cc2[nH]nnc2c(N2CCc3c(nc(OCC45CCCN4CCC5)nc3N3C[C@@H]4C[C@H](C3)[C@H](O)C4)C2)c1C [Example 640, (1R,5R,6R)-3-(7-(5,6-dimethyl-1H-benzo[d][1,2,3]triazol-4-yl)-2-((tetrahydro-11H-pyrrolizin-7a(5H)-yl)methoxy)-5,6,7,8-tetrahydropyrido[3,4-d]pyrimidin-4-yl)-3-azabicyclo[3.2.1]octan-6-ol] | 50000 nM | 15500 nM | 17900 nM |
| CCc1c(F)ccc2cc(O)cc(N3CCc4c(nc(OCC5(CN(C)C)CC5)nc4N4CCCN(c5nccs5)CC4)C3)c12 [Example 645, 4-(2-((1-((dimethylamino)methyl)cyclopropyl)methoxy)-4-(4-(thiazol-2-yl)-1,4-diazepan-1-yl)-5,8-dihydropyrido[3,4-d]pyrimidin-7(6H)-yl)-5-ethyl-6-fluoronaphthalen-2-ol] | 52 nM | 7 nM | 13 nM |
| CCc1c(F)ccc2cc(O)cc(N3CCc4c(nc(OCC5(CN(C)C)CC5)nc4N4CCCN(CC(F)(F)F)CC4)C3)c12 [Example 646, 4-(2-((1-((dimethylamino)methyl)cyclopropyl)methoxy)-4-(4-(2,2,2-trifluoroethyl)-1,4-diazepan-1-yl)-5,8-dihydropyrido[3,4-d]pyrimidin-7(6H)-yl)-5-ethyl-6-fluoronaphthalen-2-ol] | 95 nM | 20 nM | 23 nM |
| CCc1c(F)ccc2cc(O)cc(N3CCc4c(nc(OCC5(CN(C)C)CC5)nc4N4CCCN(C(=O)Cc5ccccn5)CC4)C3)c12 [Example 647, 1-(4-(2-((1-((dimethylamino)methyl)cyclopropyl)methoxy)-7-(8-ethyl-7-fluoro-3-hydroxynaphthalen-1-yl)-5,6,7,8-tetrahydropyrido[3,4-d]pyrimidin-4-yl)-1,4-diazepan-1-yl)-2-(pyridin-2-yl)ethan-1-one] | 5570 nM | 392 nM | 1140 nM |
| CCc1c(F)ccc2cc(O)cc(N3CCc4c(nc(OC[C@@]56CCCN5C[C@H](F)C6)nc4N4CCCN(C(=O)Cc5ccccn5)CC4)C3)c12 [Example 650, 1-(4-(7-(8-ethyl-7-fluoro-3-hydroxynaphthalen-1-yl)-2-(((2R,7aS)-2-fluorotetrahydro-1H-pyrrolizin-7a(5H)-yl)methoxy)-5,6,7,8-tetrahydropyrido[3,4-d]pyrimidin-4-yl)-1,4-diazepan-1-yl)-2-(pyridin-2-yl)ethan-1-one] | 3440 nM | 528 nM | 718 nM |
| CCc1c(F)ccc2cc(O)cc(N3CCc4c(nc(OC[C@@]56CCCN5C[C@H](F)C6)nc4N4C[C@H]5CC[C@@H](C4)[C@H]5C#N)C3)c12 [Example 652, (1R,5S,8R)-3-(7-(8-ethyl-7-fluoro-3-hydroxynaphthalen-1-yl)-2-(((2R,7aS)-2-fluorotetrahydro-1H-pyrrolizin-7a(5H)-yl)methoxy)-5,6,7,8-tetrahydropyrido[3,4-d]pyrimidin-4-yl)-3-azabicyclo[3.2.1]octane-8-carbonitrile] | 3120 nM | 1410 nM | 1240 nM |
